Values of other authors as cited in paper PMC8875242, “Evaluation of the Potency of Anti-HIV and Anti-HCV Drugs to Inhibit P-Glycoprotein Mediated Efflux of Digoxin in Caco-2 Cell Line and Human Precision-Cut Intestinal Slices” (Pharmaceuticals, 2022).

Conditions: healthy volunteers; cited from earlier work

## maraviroc
  Total exposure to digoxin in the presence of the drug: unaffected
